Source: PMC12445440, “A Pyrido‐Quinoxaline Derivative That Downregulates Reticulon 3 Protein Exhibits Potent Antiviral Activity Against Zika Virus” (Journal of Medical Virology, 2025)

System: ZIKV^Br
Assay: Virus yield reduction assay, ZIKV^Br on Huh-7 cells
Type: cell-based, Zika virus
Conditions: viral yield reduction

Structure (SMILES): NC(=O)c1ncn([C@@H]2O[C@H](CO)[C@@H](O)[C@H]2O)n1 [RBV, 1‐(b‐D‐ribofuranosyl)‐1H‐1,2,4‐triazole‐3‐carboxamide, reference compound]
- Activity against ZIKV^Br at nontoxic concentrations: did not seem to be active
